Test results: PMC6021390, “A promiscuous cytochrome P450 aromatic O-demethylase for lignin bioconversion” (Nature Communications, 2018)

Tested on: reduced nicotinamide adenine dinucleotide
Assay: purified protein, by the assay type
Details: pH 7.5; 25.0 °C

## GcoB (Amycolatopsis sp. ATCC 39116)
  Km: 16 µM
